Data taken from ChEMBL document CHEMBL1275501, “Plasmid-mediated quinolone resistance pump QepA2 in an Escherichia coli isolate from France” (2008).

Tested on: Escherichia coli
Details: BicA

GENTAMICIN
MIC: 0.5 µg/mL
